Bioassay records (PubChem)
A selection: hits, their analogues and other compounds. The true share with any hit is near 3.7%.
Nrf2 inh = Nrf2 pathway inhibition | Potency, µM (titrated, usually from 46 µM), for the others: top-dose activity change, negative = inhibition, usual class: inhibitors | AID 504444 | 360,000 tested, 2.1% active | A549 ARE-Fluc reporter, luciferase luminescence, 18-24 h; note: potency is the fitted concentration of half-maximal effect; % is set by controls: 0 for no effect and ±100 for the full control effect; nearly all actives have a fitted effect of over 60% in size
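In this cell-based qHTS, ARE-driven firefly luciferase in A549 cells reports Nrf2 activity; the luminescent signal after BugLite lysis is the measured value, with a prior CellTiter-Fluor read for cell health.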
A549 viability = kills or reduces viability of A549 cells in Nrf2 counter-screen; A549 ARE-Fluc cells, CellTiter-Fluor viability, 18-24 h; Potency, µM (top dose mostly 46 µM), for inactives: top-dose activity change, negative = cytotoxicity, actives largely listed as inhibitors; 390,000 tested, 0.16% active; note: potency is the fitted concentration of half-maximal effect; % is set by controls: 0 for no effect and ±100 for the full control effect
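A549 ARE-Fluc cells in 5% FBS OPTI-MEM, 5000 cells/well, rested 2 h then exposed to compounds in concentration-response for 18-24 h at 37 °C. Viability by CellTiter-Fluor fluorescence (Ex 405/Em 525) after 30 min; luciferase luminescence (BugLite, 15 min, RT) read afterwards.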
IL2 activator = activators of IL-2; IL-2 activation reporter assay, cell-based qHTS; stimulated with anti-CD3/CD4/CD28 beads; in transgenic mouse T cells; activation, % (series mostly up to about 46 µM); 360,000 tested, 0.065% active; AID 652025; in the data active = activation above about 50%; inconclusive = mostly about 30% to 49%; note: 0% is about no effect
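Unstimulated transgenic mouse T cells; 60-min compound exposure; bead-based TCR/CD4/CD28 stimulation; 18 h culture, 37 degrees C; dual fluorescence (EGFP, DsRed) plate cytometry.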
miR-21 reporter = miR-21 reporter, rising signal. 340,000 tested, under 10 active. Potency, µM (highest dose often 38.3 µM), for the others: at the highest dose reporter change, positive = more light. HeLa miR-21 FLuc reporter, luciferase, 48 h. AID 2288; active = well fitted rising curve with a large enough effect; inconclusive = small, poorly fitted or top-dose-only effect; inactive = no such curve, though single readings can be large or run the other way;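 further: % of control where 0% means no effect; miR-21 action dims this reporter so a rising signal means less miR-21 action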
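HeLa cells stably expressing CMV-driven firefly luciferase with a downstream miR-21 binding sequence, endogenously expressing miR-21, were treated with titrations (up to about 40uM final) for 48 hours at 37 degree Celsius. Luciferase luminescence was read after lysis.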
ClpP mod = qHTS Assay for Activators of ClpP; ATP-dependent Clp protease proteolytic subunit (Bacillus subtilis (strain 168)), P80244; purified B. subtilis ClpP, FRET peptide cleavage, 20 min; Potency, µM (doses to about 57.5 µM), inactives show at the top dose activity change, negative = active; 340,000 tested, 1.9% active; AID 651965, 2013; active = well fitted falling curve with a large enough effect; inconclusive = small, poorly fitted or top-dose-only effect; inactive = no such curve, though single readings can be large or run the other way; note: potency is the fitted concentration of half-maximal effect; the source files actives as falling curves though it sought activators and does not explain the sign; nearly all actives have a fitted effect of over 65% in size
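ClpP 10 microg/mL final, pH 8 Tris/KCl buffer with BSA, glycerol, Tween-20; compound pinned in; FRET-FV substrate; RT 20 min; Ex320/Em430; ΔFRET vs ADEP 5.8 microM, DMSO, no enzyme.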
Nrf2 ARE act = activates Nrf2 signaling | AREc32 ARE-luciferase reporter (MCF7-derived line), luminescence, 24 h | Potency, µM (top dose mostly 46.1 µM), without a hit: top-dose activation, hits mostly activators | 410,000 tested, 0.31% active; note: potency is the fitted concentration of half-maximal effect; % of control where 0% means no effect; nearly all actives have a fitted effect of over 65% in size
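Nrf2 activation is followed as ARE-luciferase induction in the AREc32 line after one day of compound treatment; luminescence is read with Steady-Glo.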
An asterisk follows results filed as active; ? = inconclusive; . = no result given; [ ] = remark or other dose. Unless noted, calls come from the whole dose curve; as a rule, active = well fitted curve in the direction sought with a large enough effect; inconclusive = small, poorly fitted or top-dose-only effect, or another doubt; inactive = no such curve, though single readings can be large; an effect the other way counts as inactive or inconclusive.

Chains of the proteins cited; added tags and fusions are not shown.
ATP-dependent Clp protease proteolytic subunit (Bacillus subtilis (strain 168)), P80244, UniProt P80244, whole entry, looked up: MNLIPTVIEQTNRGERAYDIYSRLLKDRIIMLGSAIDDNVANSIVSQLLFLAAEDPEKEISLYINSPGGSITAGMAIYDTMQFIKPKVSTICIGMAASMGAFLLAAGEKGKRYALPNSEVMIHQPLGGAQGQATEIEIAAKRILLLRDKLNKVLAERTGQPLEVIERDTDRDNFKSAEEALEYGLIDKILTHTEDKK

no. | canonical_smiles | Nrf2 inh | A549 viability | IL2 activator | miR-21 reporter | ClpP mod | Nrf2 ARE act
1 | Cc1cccc(-c2cc3nc4c(c(NCc5ccco5)n3n2)CCCC4)c1 | -46% | ? | -2 | -55% | 28µM* | 5%
2 | c1ccc(OCc2nc3c4c(ncn3n2)-c2ccccc2CC42CCCC2)cc1 | -12% | 9% | 0 | -3% | 13µM* | -1%
3 | Nc1ncnc2c1C1(CCCCC1)Cc1ccccc1-2 | 7% | -2% | 0 | -6% | 16µM* | -2%
4 | CSc1ncccc1C(=O)Nc1nc2ccc(Oc3ccccc3)cc2s1 | 10µM* | -7% | 0 | -45% | -6% | 8%
5 | CSc1ncccc1C(=O)Nc1ccc2nc(C)sc2c1 | 3% | -2% | -2 | -59% | -1% | 0%
6 | COc1ccccc1C(=O)Nc1nc2ccccc2s1 | 6.5µM* | 3% | 0 | ? | 4% | -6%
7 | COc1ccc2nc(NC(=O)c3nc(S(=O)(=O)Cc4ccccc4)ncc3Cl)sc2c1 | -3% | ? | . | ? | 0% | ?
8 | COc1ccc2nc(NC(=O)c3nc(S(=O)(=O)Cc4ccccc4F)ncc3Cl)sc2c1 | 3% | ? | . | ? | 1% | 10µM*
9 | COc1ccc2nc(NC(=O)c3ccccc3F)sc2c1 | 1.3µM* | 7% | 1 | -15% | 4% | ?
10 | COc1ccccc1C(=O)Nc1nc2ccc(S(C)(=O)=O)cc2s1 | ? | -15% | -2 | -36% | ? | 1%
11 | COc1ccc2nc(NC(=O)c3ccccc3C(=O)O)sc2c1 | -15% | 0% | -3 | -9% | 1% | 4%
12 | COc1ccc(C(=O)Nc2nc3ccccc3s2)c(OC)c1 | 7.3µM* | 4% | -1 | ? | . | -2%
13 | COc1cccc(NC(=O)c2oc3ccccc3c2NC(=O)c2cc3ccccc3o2)c1 | 4% | 3% | . | -6% | 57% | 4%
14 | COc1cccc(NC(=O)c2oc3ccc(S(=O)(=O)N(C)C4CCCCC4)cc3c2C)c1 | . | 8% | . | 21% | 25µM* | 4%
15 | COc1cccc(NC(=O)c2oc3ccccc3c2NC(=O)C(C)(C)C)c1 | 9.2µM* | -3%[1.84 µM] | -3 | 12% | ? | 0%
16 | CCNC(=O)CC1C(=O)N(c2ccc(F)cc2)C(=O)N1CCOC (centres undefined) | 8% | 3% | . | -2% | 2% | -1%
17 | CC(C)Oc1ccc(CNC(=O)c2ccc3c(c2)nc2n3CCCCC2)cc1 | . | 1% | . | -7% | -2% | 4%
18 | CCOc1ccc2nc(NC(=O)c3nc(SC(C)C)ncc3Cl)sc2c1 | -15% | ? | . | 0% | -1% | 0%
19 | CCOc1ccc(C(=O)c2cn(CC(=O)Nc3ccc(F)cc3)c3cc4c(cc3c2=O)OCO4)cc1 | ? | 7% | . | 3% | -7% | -1%
20 | Cc1ccc2nc3c(cc(C#N)c(=O)n3-c3nccs3)c(=O)n2c1 | ? | ? | -2 | 1% | 2.5µM* | 0%
21 | CC(Oc1ccccc1)C(=O)N1CCN(Cc2cc(=O)n3nc(-c4ccccc4Cl)sc3n2)CC1 (centres undefined) | . | -17% | . | 5% | -11% | 23%
22 | COc1cccc(-c2nc(SCC(=O)NC3CCCC3)c(-c3ccc(F)cc3)[nH]2)c1 | 18µM* | ? | . | 29% | 35µM* | 0%
23 | COc1cccc(-c2nc(SCC(=O)NCC3CCCO3)c(-c3ccc(Cl)cc3)[nH]2)c1 (centres undefined) | ? | -17% | . | 22% | 25µM* | 8%
24 | COc1cccc(-c2nc(SCC(=O)NC3CCCC3)c(-c3ccccc3)[nH]2)c1 | -15% | -11% | . | 21% | 32µM* | -1%
25 | COc1cccc(-c2nc(C(=O)NCC3CCCO3)cc3c2[nH]c2ccccc23)c1 (centres undefined) | 21µM* | -16% | -1 | 20% | 4% | 0%
26 | COc1cccc(-c2nc(SCC(=O)NC3CCCC3)c(-c3ccc(C)cc3)[nH]2)c1 | ? | ? | . | ? | ? | -2%
27 | COc1cccc(-c2nc(SCC(=O)NCC3CCCO3)c(-c3ccc(C)cc3)[nH]2)c1 (centres undefined) | -10% | -8% | . | 22% | ? | -1%
28 | Cc1cc[n+](C2CCCCC2)c2ccccc12 | . | . | . | . | -3% | .
29 | CSc1nc2n(n1)C(c1ccccn1)C1=C(CC(C)(C)CC1=O)N2 (centres undefined) | 1% | 6% | -3 | 1% | 25µM* | 0%
30 | COc1ccc(-n2c(SCC(=O)c3ccc(Cl)cc3)nc3c([nH]c4ccccc43)c2=O)cc1 | . | -7% | . | -3% | -3% | 0%
31 | CC(=O)Oc1c(Cl)c(N2CCOCC2)c(OC(C)=O)c2ccccc12 | ? | -3% | -2 | 0% | 4% | 16µM*
32 | Cc1cc(OC(=O)N2CCOCC2)cc(C)c1Cl | -4% | 1% | 4 | -2% | 1% | 0%
33 | Cc1ccc2c(c1)cc(C(=O)Nc1ccc(F)cc1F)n2C | 25% | -5% | . | -7% | -1% | 7%
34 | C/C(N)=C(/C#N)C(=O)CSc1nc2scc(-c3ccccc3)c2c(=O)n1C | 15µM* | 1% | -5 | -3% | . | 0%
35 | COc1cccc(-c2noc(-c3cc4ccccc4oc3=O)n2)c1OC | ? | 1% | . | -16% | ? | 11µM*
36 | C[C@@H]1[C@H](c2ccccc2)OCCS(=O)(=O)N1Cc1ccc(Cl)cc1 | . | . | . | . | 1% | .
37 | CCC1=NN2C(=N)/C(=C/c3cc(C)n(Cc4ccccc4)c3C)C(=O)N=C2S1 | -6% | -22% | 0 | 1% | 25µM* | 0%
38 | Cc1cc(/C=C2\C(=N)N3N=C(C(C)C)SC3=NC2=O)c(C)n1Cc1ccccc1 | -11% | -5% | -1 | -1% | . | 1%
39 | O=S(=O)(c1cccc(C(F)(F)F)c1)n1c(/C=C/c2ccccc2)nc2ccccc21 | . | 18% | . | 32% | 5% | 1%
40 | CCCCCCCCCCCCCCCC[n+]1ccc(CC(O)c2c(C)[nH]c3ccccc23)c2ccccc21 (centres undefined) | . | . | . | . | -1% | .

Continued; the last 5 above are carried over.
no. | canonical_smiles | Nrf2 inh | A549 viability | IL2 activator | miR-21 reporter | ClpP mod | Nrf2 ARE act
36 | C[C@@H]1[C@H](c2ccccc2)OCCS(=O)(=O)N1Cc1ccc(Cl)cc1 | . | . | . | . | 1% | .
37 | CCC1=NN2C(=N)/C(=C/c3cc(C)n(Cc4ccccc4)c3C)C(=O)N=C2S1 | -6% | -22% | 0 | 1% | 25µM* | 0%
38 | Cc1cc(/C=C2\C(=N)N3N=C(C(C)C)SC3=NC2=O)c(C)n1Cc1ccccc1 | -11% | -5% | -1 | -1% | . | 1%
39 | O=S(=O)(c1cccc(C(F)(F)F)c1)n1c(/C=C/c2ccccc2)nc2ccccc21 | . | 18% | . | 32% | 5% | 1%
40 | CCCCCCCCCCCCCCCC[n+]1ccc(CC(O)c2c(C)[nH]c3ccccc23)c2ccccc21 (centres undefined) | . | . | . | . | -1% | .
41 | COC(=O)c1ccccc1OC(=O)c1cc2ccccc2oc1=O | 27% | 3% | 0 | -11% | . | 2%
42 | COC(=O)c1cc2ccccc2oc1=O | -6% | -3% | 2 | -9% | 20µM* | 0%
43 | O=C(OCCn1cncn1)c1cc2ccccc2oc1=O | -1% | -6% | 2 | -11% | 28µM* | 2%
44 | O=C(COC(=O)c1cc2ccccc2oc1=O)c1cccc([N+](=O)[O-])c1 | -10% | -3% | 1 | -9% | 32µM* | 1%
45 | O=C(OCc1nc2ccccc2s1)c1cc2ccccc2oc1=O | . | . | . | -58% | . | .
